Reference: PubChem BioAssay AID588342 (National Center for Advancing Translational Sciences (NCATS), 2011)
Only a part is listed here, and it is no random draw. Records with an inconclusive call do not appear. Calls of active or inactive are those of the source. Calls follow the shape of the dose curve; as a rule, active = well fitted inhibition curve with a large enough effect; inconclusive = small, poorly fitted or top-dose-only effect; inactive = flat fitted curve, though single readings scatter.

Amino acid sequences for entries named in this document (tags omitted).
UniProt P08659, whole entry: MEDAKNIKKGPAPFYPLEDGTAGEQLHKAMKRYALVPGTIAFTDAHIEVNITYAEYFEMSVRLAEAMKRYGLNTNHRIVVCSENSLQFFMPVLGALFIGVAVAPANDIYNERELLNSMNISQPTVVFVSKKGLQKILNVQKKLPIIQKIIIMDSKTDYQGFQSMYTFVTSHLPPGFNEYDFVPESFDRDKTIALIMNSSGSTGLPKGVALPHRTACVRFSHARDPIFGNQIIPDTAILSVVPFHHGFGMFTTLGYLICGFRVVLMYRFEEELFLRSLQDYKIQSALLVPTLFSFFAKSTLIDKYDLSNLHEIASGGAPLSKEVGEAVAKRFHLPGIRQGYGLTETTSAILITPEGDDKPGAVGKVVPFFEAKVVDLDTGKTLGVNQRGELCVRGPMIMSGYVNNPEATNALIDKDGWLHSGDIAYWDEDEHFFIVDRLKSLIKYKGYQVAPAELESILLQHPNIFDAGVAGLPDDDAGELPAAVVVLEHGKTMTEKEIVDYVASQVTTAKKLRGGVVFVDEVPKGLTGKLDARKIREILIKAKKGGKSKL

These compounds were tested against Luciferin 4-monooxygenase (Photinus pyralis) (UniProt P08659) (assay: qHTS profiling assay for firefly luciferase inhibitor/activator using purifed enzyme and Km concentrations of substrates (counterscreen for miR-21 project)). Conditions: purified FLuc, luminescence inhibition; at 57.5 µM (top of the series).
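Also: plate controls were vehicle for no effect and reference inhibitor for full effect; nearly all actives have a fitted effect of over 55% in size.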

| SMILES | activity change, negative = inhibition |
| --- | --- |
| COc1ccc(OP(C)(=O)Nc2cccc(Br)c2)cc1 (stereo unspecified) | inactive: -0.689% |
| CN(C)CCOC(=O)C(O)(c1ccccc1)C1CCCCC1 (stereo unspecified) | inactive: -2.12% |
| COc1ccc(NP(C)(=O)Oc2ccccc2OC)cc1 (stereo unspecified) | inactive: 1.45% |
| O=[N+]([O-])c1ccc(OP2(=O)COCCO2)cc1 (stereo unspecified) | inactive: -1.4% |
| Cc1cc(-c2cccc3ccccc23)c(C)cn1.O=[N+]([O-])c1cc([N+](=O)[O-])c(O)c([N+](=O)[O-])c1 | inactive: -12.2% |
| CP(=O)(Nc1ccc(SC(F)(F)F)cc1)Oc1ccc(F)cc1 (stereo unspecified) | inactive: 0.165% |
| CCOP(C)(=S)SCC(=O)NC(C)(CC)C(=O)O (stereo unspecified) | inactive: 0.539% |
| CP(=O)(Nc1ccc2c(c1)OCCO2)Oc1ccccc1 (stereo unspecified) | inactive: 0.147% |
| Cc1ccccc1NP(C)(=O)Nc1ccccc1C | inactive: 5.56% |
| CP(=O)(Nc1ccccc1F)Oc1ccccc1 (stereo unspecified) | inactive: -1.15% |
| CC(C)c1ccc(OP(C)(=O)Nc2ccc(SC(F)(F)F)cc2)cc1 (stereo unspecified) | inactive: 3.88% |
| O=C(OCCN1CCN(CCOCc2ccccc2)CC1)C(O)(c1ccccc1)c1ccccc1 | inactive: 4.63% |
| CCOC(=O)c1ccc(NP(C)(=O)Oc2ccc(F)cc2)cc1 (stereo unspecified) | inactive: 0.592% |
| COc1ccc(OP(C)(=O)Nc2ccc(SC(F)(F)F)cc2)cc1 (stereo unspecified) | inactive: -2.13% |
| CCN(CC)CCCOC(=O)C(O)(c1ccccc1)C1CCCCC1 (stereo unspecified) | inactive: 5.72% |
| CP(=O)(Nc1ccccc1)Oc1ccc(F)cc1 (stereo unspecified) | inactive: 5.14% |
| CCCCCOc1ccc(NP(C)(=O)Oc2ccc(Cl)cc2Cl)cc1 (stereo unspecified) | inactive: -2.18% |
| Cc1cc(C)cc(OP(C)(=O)Nc2cccc(C(F)(F)F)c2)c1 (stereo unspecified) | inactive: 6.34% |
| COc1ccccc1OP(C)(=O)Nc1ccc(C)c(C)c1 (stereo unspecified) | inactive: -3.46% |
| COc1ccc(OP(C)(=O)Nc2ccccc2Br)cc1 (stereo unspecified) | inactive: 0.499% |
| CP(=O)(OCCOc1ccccc1)OCCOc1ccccc1 | inactive: -0.665% |
| CP(=O)(Nc1ccc(Cl)cc1Cl)Oc1ccccc1 (stereo unspecified) | inactive: 1.7% |
| COc1ccccc1OP(C)(=O)Nc1ccc(Br)cc1 (stereo unspecified) | inactive: 0.099% |
| COc1ccc(OP(C)(=O)Nc2ccccn2)cc1 (stereo unspecified) | inactive: -0.696% |
| CN(C)CCOC(=O)C(O)(c1ccccc1)C1CCCC1 (stereo unspecified) | inactive: -0.148% |
| O=[N+]([O-])c1cc([N+](=O)[O-])c(Nc2ccccn2)c([N+](=O)[O-])c1 | inactive: -2.61% |

| SMILES | activity change, negative = inhibition |
| --- | --- |
| Cc1c(NP(C)(=O)Oc2ccc(C(C)C)cc2)c(=O)n(-c2ccccc2)n1C (stereo unspecified) | inactive: -6.01% |
| CP(=O)(Nc1ccccn1)Oc1ccccc1 (stereo unspecified) | inactive: -0.0114% |
| COc1ccccc1OP(C)(=O)Nc1ccc(C)cc1C (stereo unspecified) | inactive: 4.59% |
| CCc1ccc(OP(C)(=O)O)cc1 | inactive: -4.38% |
| CCN(CC)CC(O)COC(=O)C(O)(c1ccccc1)C1CCCCC1 (stereo unspecified) | inactive: 5.25% |
| COc1ccc(OP(C)(=O)Nc2ccc(Br)cc2)cc1 (stereo unspecified) | inactive: -2.51% |
| COc1ccccc1OP(C)(=O)Nc1c(C)n(C)n(-c2ccccc2)c1=O (stereo unspecified) | inactive: 0.574% |
| O=C(OCCCN1CCCC1)C(O)(c1ccccc1)C1CCCCC1 (stereo unspecified) | inactive: 1.48% |
| CP(=O)(Oc1ccccc1)N1CCOC1=O (stereo unspecified) | inactive: 1.64% |
| CCc1ccc(OP(C)(=O)Nc2cccnc2)cc1 (stereo unspecified) | inactive: -0.759% |
| CC(C)(C)c1ccc(OP(C)(=O)O)cc1 | inactive: -3.71% |
| COc1ccccc1OP(C)(=O)Nc1ccccc1Br (stereo unspecified) | inactive: 2.8% |
| CP(=O)(Nc1ccc(Cl)cc1)Oc1ccc(F)cc1 (stereo unspecified) | inactive: -0.0393% |
| CN(C)C(=O)c1c([N+](=O)[O-])cc([N+](=O)[O-])cc1[N+](=O)[O-] | inactive: -4.52% |
| CCOC(=O)c1ccc(NP(C)(=O)Oc2ccc(Cl)cc2)cc1 (stereo unspecified) | inactive: 1.74% |
| CP(=O)(OC12CC3CC(CC(C3)C1)C2)OC12CC3CC(CC(C3)C1)C2 | inactive: -0.23% |
| CP(=S)(Nn1cnnc1)Oc1ccccc1 (stereo unspecified) | inactive: -0.812% |
| CP(=O)(Nc1ccccc1Br)Oc1ccccc1 (stereo unspecified) | inactive: 0.386% |
| COc1ccccc1OP(C)(=O)Nc1ccccc1 (stereo unspecified) | inactive: 2.64% |
| CP(=O)(Nc1ccc(SC(F)(F)F)cc1)Oc1ccc(Cl)cc1 (stereo unspecified) | inactive: -0.691% |
| Cc1cccc(C)c1OP(C)(=O)Nc1ccc(SC(F)(F)F)cc1 (stereo unspecified) | inactive: -1.01% |
| CP(=O)(Oc1ccccc1)OC(c1ccccc1)C(F)(F)F (stereo unspecified) | inactive: 0.246% |
| CCc1ccc(OP(C)(=O)N2CCN(c3ccc([N+](=O)[O-])cc3)CC2)cc1 (stereo unspecified) | inactive: -2.73% |
| CP(=O)(NC(=O)Nc1ccccc1)Oc1ccccc1 (stereo unspecified) | inactive: -0.697% |
| Cc1cc(C)cc(OP(C)(=O)Nc2ccc(SC(F)(F)F)cc2)c1 (stereo unspecified) | inactive: 1.37% |
| CCOC(=O)c1ccc(NP(C)(=O)Oc2ccc(OC)cc2)cc1 (stereo unspecified) | inactive: 4.26% |

| SMILES | activity change, negative = inhibition |
| --- | --- |
| CCOP(C)(=S)SCC(=O)NC(C)C(=O)O (stereo unspecified) | inactive: -1.45% |
| CP(=O)(Nc1ccccn1)Oc1ccc(Cl)cc1 (stereo unspecified) | inactive: 4.74% |
| CCN(CC)CCCOC(=O)C(O)(c1ccccc1)c1ccccc1 | inactive: 1.62% |
| O=[N+]([O-])c1cc([N+](=O)[O-])c(Nc2cccnc2)c([N+](=O)[O-])c1 | inactive: -9.36% |
| O=[N+]([O-])c1ccc2c(c1)C=Nc1ccccc1O2 | inactive: -9.31% |
| CC(C)(C)c1ccc(OP(C)(=O)Nc2ccc(SC(F)(F)F)cc2)cc1 (stereo unspecified) | inactive: 0.457% |
| Cc1cccc(C)c1OP(C)(N)=O (stereo unspecified) | inactive: -1.51% |
| COc1ccccc1OP(C)(=O)Nc1ccc(C)cc1 (stereo unspecified) | inactive: -1.97% |
| Cc1ccc(NP(C)(=O)Oc2ccccc2)c(C)c1 (stereo unspecified) | inactive: -2.07% |
| CCOC(=O)c1ccc(NP(C)(=O)Oc2ccccc2)cc1 (stereo unspecified) | inactive: -0.164% |
| Cc1cc(C)cc(OP(C)(N)=O)c1 (stereo unspecified) | inactive: -1.75% |
| COc1ccccc1OP(C)(=O)Nc1cc(Cl)ccc1C (stereo unspecified) | inactive: -1.96% |
| COc1ccc(OP(C)(=O)Nc2cccc(F)c2)cc1 (stereo unspecified) | inactive: -1.48% |
| CC1=NCCc2c1[nH]c1ccccc21.O=[N+]([O-])c1cc([N+](=O)[O-])c(O)c([N+](=O)[O-])c1 | inactive: 2.82% |
| COc1ccccc1OP(C)(=O)Nc1cccc(Br)c1 (stereo unspecified) | inactive: -1.01% |
| CCOC(=O)c1ccc(NP(C)(=O)Oc2cc(C)cc(C)c2)cc1 (stereo unspecified) | inactive: 1.67% |
| Cc1cc(C)cc(OP(C)(=O)Nc2ccc(C)cc2C)c1 (stereo unspecified) | inactive: 6.25% |
| Cc1ccc(C)c(NP(C)(=O)Oc2ccccc2)c1 (stereo unspecified) | inactive: 1.57% |
| CP(=O)(Nc1cccc(Br)c1)Oc1ccccc1 (stereo unspecified) | inactive: -5.59% |
| Cc1cc(C)cc(OP(C)(=O)Nc2ccccn2)c1 (stereo unspecified) | inactive: 0.977% |
| CN1CCCCC1COC(=O)C1(O)c2ccccc2CCc2ccccc21 (stereo unspecified) | inactive: 0.358% |
| COc1ccccc1OP(C)(=O)Nc1c(C)cccc1C (stereo unspecified) | inactive: 0.307% |
| CP(=O)(Nc1ccc(SC(F)(F)F)cc1)Oc1ccccc1 (stereo unspecified) | inactive: -1.08% |
| CCCOc1ccc(NP(C)(=O)Oc2ccc(Cl)cc2)cc1 (stereo unspecified) | inactive: -2.46% |
